Tests used:
Conditions in all cases: repeated experiment
[1] = tested on: HI650 (Lung Adenocarcinoma); experiment: Cell viability analysis, lung cancer HI650
[2] = tested on: A549 (Lung Adenocarcinoma); experiment: Cell viability analysis, lung cancer A549
AsPC-1 = experiment: Cell viability analysis, pancreatic cancer AsPC-1; type: cell-based, human
[3] = tested on: HeLa (Cervix Adenocarcinoma); experiment: Cell viability analysis, cervical cancer HeLa
BxPC-3 = experiment: Cell viability analysis, pancreatic cancer BxPC-3; type: cell-based, human

CN[C@H](CC(C)C)C(=O)N[C@H]1C(=O)N[C@@H](CC(N)=O)C(=O)N[C@H]2C(=O)N[C@H]3C(=O)N[C@H](C(=O)N[C@H](C(=O)O)c4cc(O)cc(O)c4-c4cc3ccc4O)[C@H](O)c3ccc(c(Cl)c3)Oc3cc2cc(c3O[C@@H]2O[C@H](CO)[C@@H](O)[C@H](O)[C@H]2O[C@H]2C[C@](C)(N)[C@H](O)[C@H](C)O2)Oc2ccc(cc2Cl)[C@H]1O.Cl [Vancomycin HCl (Vancocin)]
The results of antibiotic drug inhibiting cancer cell lines (cell viability analysis), H1650 [1]: 82.92 | The results of antibiotic drug inhibiting cancer cell lines (cell viability analysis), A549 [2]: 86.65 | The results of antibiotic drug inhibiting cancer cell lines (cell viability analysis), AsPC-1 (AsPC-1): 85.55 | The results of antibiotic drug inhibiting cancer cell lines (cell viability analysis), HeLa [3]: 78.82 | The results of antibiotic drug inhibiting cancer cell lines (cell viability analysis), BxPC-3 (BxPC-3): 79.16

Source: patent US10105357B2, “Indication of antibiotic drugs for preparation of cancer inhibition pharmaceutical composition” (LAUNX BIOMEDICAL CO., LTD., priority 2014, dated 2018)
